Data reported in patent US10085990B2, “Tricyclic compounds as modulators of TNF-α synthesis and as PDE4 inhibitors” (vTv Therapeutics LLC, priority 2008, dated 2018).

System: TNF synthesis in human PBMC
Assay: Human PBMC TNF Synthesis Assay
Assay type: cell-based
Conditions: LPS-stimulated human PBMC, overnight incubation, TNF ELISA; read-out: TNF inhib.
Protocol: Human PBMC TNF Synthesis Assay
Human PBMC were obtained by from a healthy human donor leuko pak. Typically, all donors were pre-screened for STD, HIV and have been given a physical by a physician. One to two ampoules were thawed at 37° C. and then resuspended in 45 to 85 mL of RPMI+10% FBS to a final concentration of 2.5×10^6 cells/mL. Resuspended cells were filtered to remove any large clumps.
Prepare compounds for addition to cells: All compounds were DMSO stocks at 20 mM. Working stock for cell testing were prepared as 4× concentrated material in RPMI+10% FBS. Compounds were added to a polypropylene block and then diluted with the appropriate amount of RPMI+10% FBS. Typically 2.6 μL of 20 mM stock was diluted to 650 μL final volume to yield an 80 μM starting concentration in the stocks. RPMI was added to DMSO stock by pipetting into the tube or block. The compounds were then serial diluted with RPMI+10% FBS. The final DMSO concentrations were not greater than 0.5% in the assay.
Compounds were added to the cells as 4× working stock. 50 μL of compound was prepared above is added to the cells and re-equilibrated in a humidified 5% CO2 incubator at 37° C. for 30 minutes.
A stock of LPS was prepared using RPMI+10% FBS. To prepare the stock, 2.8 μL of LPS (5 mg/mL; Sigma Cat #L3024) was added to 35 mL of media. 50 μL of the LPS in media was added to the cells. […]

| Structure (SMILES) | IC50 [nM] |
| --- | --- |
| COc1cccc2c1ncc1c(=O)n(-c3cccc(Cl)c3)c(=O)n([C@@H]3CCN(S(C)(=O)=O)C3)c12 [Example 115, 3-(3-Chloro-phenyl)-1-((R)-1-methanesulfonyl-pyrrolidin-3-yl)-7-methoxy-1H-pyrimido[5,4-c]quinoline-2,4-dione] | 29 |
| COc1cccc2c1ncc1c(=O)n(-c3cccc(Cl)c3)c(=O)n([C@H]3CCN(S(C)(=O)=O)C3)c12 [Example 118, 3-(3-Chloro-phenyl)-1-((S)-1-methanesulfonyl-pyrrolidin-3-yl)-7-methoxy-1H-pyrimido[5,4-c]quinoline-2,4-dione] | 29 |
